An excerpt weighted towards active compounds, which were near 3.7% of everything screened.
A549 tox: A549 cytotoxicity, counter-screen for Nrf2 inhibitors; A549 ARE-Fluc cells, CellTiter-Fluor viability, 18-24 h; Potency, µM (doses to about 46 µM), actives largely listed as inhibitors; 0.16% of 390,000 active; AID 504648
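Cytotoxicity counterscreen: CellTiter-Fluor fluorescence was measured in A549 ARE_Fluc cells after 18-24 h of compound exposure in a concentration series. The subsequent BugLite luminescent read reports ARE-luciferase activity.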
Nrf2 block: Nrf2 pathway inhibition; A549 ARE-Fluc reporter, luciferase luminescence, 18-24 h; Potency, µM (series often up to 46 µM), actives largely listed as inhibitors; AID 504444; 2.1% of 360,000 active; note: nearly all actives have a fitted effect of over 60% in size
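Concentration-response testing used A549 ARE_Fluc cells at 5000 cells/well. Following an 18-24 h compound incubation, viability was read by fluorescence (Ex 405/Em 525) and luciferase output by luminescence.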
miR-21 FLuc: miR-21 reporter, rising signal; HeLa miR-21 FLuc reporter, luciferase, 48 h; Potency, µM (titrated, usually from 38.3 µM); AID 2288; 340,000 tested, under 10 active; active = well fitted rising curve with a large enough effect; inconclusive = small, poorly fitted or top-dose-only effect; inactive = no such curve, though single readings can be large or run the other way;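 further: miR-21 action dims this reporter so a rising signal means less miR-21 action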
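HeLa cells stably expressing CMV-driven firefly luciferase with a downstream miR-21 binding sequence, endogenously expressing miR-21, were treated with titrations (up to about 40uM final) for 48 hours at 37 degree Celsius. Luciferase luminescence was read after lysis.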
p53 reactivation: restores transcriptional activity of mutant p53 | Potency, µM (series often up to 92.2 µM), actives largely listed as activators | 0.063% of 320,000 active | H1299 p53-A138V BP100-luciferase reporter, luminescence, 24 h; note: nearly all actives have a fitted effect of over 45% in size
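p53-null H1299 cells stably carrying temperature-sensitive p53-A138V and a BP100-luciferase reporter were pinned with compounds (4-point, 1:5 series) and held 24 hrs at 37 deg C. Luminescence was read 10 min after detection reagent.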
Nrf2 activator: activates Nrf2 signaling. Potency, µM (highest dose often 46.1 µM), actives largely listed as activators. AID 624171. 0.31% of 410,000 active. AREc32 ARE-luciferase reporter (MCF7-derived line), luminescence, 24 h; note: nearly all actives have a fitted effect of over 65% in size
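Quantitative high-throughput format: AREc32 reporter cells, 1000 per well, received compound by pin transfer and were incubated 24 hr at 37 deg C, 5% CO2, before Steady-Glo luminescence detection.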
ClpP mod: qHTS Assay for Activators of ClpP. ATP-dependent Clp protease proteolytic subunit (Bacillus subtilis (strain 168)), P80244. purified B. subtilis ClpP, FRET peptide cleavage, 20 min. Potency, µM (highest dose often 57.5 µM). 1.9% of 340,000 active; active = well fitted falling curve with a large enough effect; inconclusive = small, poorly fitted or top-dose-only effect; inactive = no such curve, though single readings can be large or run the other way; note: the source files actives as falling curves though it sought activators and does not explain the sign; nearly all actives have a fitted effect of over 65% in size
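Buffer: 100 mM Tris/HCl pH8, 100 mM KCl, 0.05% low protease BSA, 2.5% glycerol, 0.01% Tween-20. ClpP 10 microg/mL final; 20 min RT; delta FRET normalized to ADEP and DMSO controls.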
Numbers stand for hits; - = inactive; ? = inconclusive; . = not tested or not shown. Unless noted, calls come from the whole dose curve; as a rule, active = well fitted curve in the direction sought with a large enough effect; inconclusive = small, poorly fitted or top-dose-only effect, or another doubt; inactive = no such curve, though single readings can be large; an effect the other way counts as inactive or inconclusive.

SMILES	A549 tox	Nrf2 block	miR-21 FLuc	p53 reactivation	Nrf2 activator	ClpP mod
CCC(O)CNC(=O)NC(=C(Cl)Cl)c1ccc(C)c(F)c1 (stereo not given)	-	18µM	-	?	?	-
CCNC(=O)C1(C)CCN(C(=O)c2ccc(C)c(F)c2)C1 (stereo not given)	.	.	.	.	-	-
CCOc1cc(CNCCSc2nnnn2C)cc(Br)c1OCc1ccccc1F	?	23µM	-	-	-	-
CCc1cnc2c(c1SCC(=O)NCc1ccccc1)c(=O)n(C)c(=O)n2C	-	.	-	.	-	-
COc1cc(CNC(=O)c2cnc(SC)nc2-c2ccccc2)cc(OC)c1OC	-	-	-	.	-	-
Cc1nn(Cc2ccccc2)c(C)c1CNC(=O)CN=C1NS(=O)(=O)c2ccccc21	-	?	.	-	-	22µM
CC(OC(=O)CCN=C1NS(=O)(=O)c2ccccc21)C(=O)NCc1ccccc1 (stereo not given)	-	-	.	-	-	-
Cc1ccc(CNC(=O)C2CCC(CNS(=O)(=O)c3ccc(C)cc3)CC2)cc1 (stereo not given)	-	.	-	.	-	-
Nc1ncnc2c1c(-c1ccc(Oc3ccccc3)cc1)cn2C1CCCC1	-	?	.	-	-	28µM
CC(=O)c1c(C)[nH]c(C(=O)CN2CCN(S(=O)(=O)c3ccccc3[N+](=O)[O-])CC2)c1C	-	21µM	.	-	-	-
CC(=O)c1ccc(NC(=O)c2cc3sccc3n2Cc2ccc(Cl)cc2)cc1	?	-	-	.	-	?
CCN(CC)c1ccc(/C=N/NC(=S)NCc2ccc(OC)cc2)cc1	-	-	-	-	-	.
CCN(CC)c1ccc(/C=N/NC(=O)Cc2cccs2)cc1	-	-	-	?	-	28µM
CCN(CC)c1ccc(/C=N/NC(=S)NCc2ccccc2)cc1	-	-	-	-	-	25µM
C=CCNC(=S)N/N=C/c1ccc(C)cc1C	-	18µM	-	-	-	-
C=CCNC(=S)N/N=C/c1ccc(N(CC)Cc2ccccc2)cc1	-	-	-	-	-	8.9µM
CCn1nc(-c2ccccc2)c(-c2ccccc2)c(C(=O)Nc2nc(C)c(C(C)=O)s2)c1=O	-	-	-	.	-	-
O=C(Nc1cccc(Cl)c1)C1CCCN(c2nn3cc(-c4ccc(F)cc4)nc3s2)C1 (stereo not given)	-	?	-	.	-	-
Cc1ccc(NC(=O)COC(=O)c2ccccc2OCC(=O)Nc2ccc(Br)cc2)c(Br)c1	.	.	.	.	.	-
O=C1Cc2cc(S(=O)(=O)N3CCN(c4ccc(C(F)(F)F)cc4)CC3)ccc2N1	-	?	.	.	.	.
COC(=O)c1ccc(-c2ccc(CNCC(O)c3ccccc3)o2)cc1 (stereo not given)	-	-	-	-	-	16µM
COc1ccc2c(c1)c1c(c(=O)n(-c3ccc(C)cc3)c(=O)n1CC(=O)NCc1ccc(C)cc1)n2C	-	-	-	.	-	?
O=C(Nc1ccc(Br)cn1)c1cccc2ccccc12	-	-	.	.	-	25µM
c1ccc2c(c1)ccn2-n1ccc2ccccc21	.	.	.	.	.	-
O=C(Nc1c(C(=O)N2CCN(c3ccccc3F)CC2)oc2ccccc12)c1ccc(Br)o1	-	23µM	-	.	-	-
SMILES	A549 tox	Nrf2 block	miR-21 FLuc	p53 reactivation	Nrf2 activator	ClpP mod
CC(C)C(=O)Nc1c(C(=O)N2CCN(c3ccccc3F)CC2)oc2ccccc12	-	-	-	.	-	-
CCOc1ccc(N(CC(=O)Nc2ccc(OC)cc2)S(=O)(=O)c2ccc(Cl)cc2)cc1	-	.	-	.	-	-
CC1=C(C(=O)Nc2cccc(C(F)(F)F)c2)C2(CCCCCC2)OC1=O	-	-	-	.	-	-
Cc1cc(NC(=O)c2ccc(NC(=O)CCS(=O)(=O)c3cccs3)cc2)ccc1Br	-	-	-	.	-	-
C=C(C)CSc1nc2sc3c(c2c(=O)n1Cc1ccccc1)CC(C)(CC)OC3 (stereo not given)	-	-	-	.	-	-
C=C(C)Cn1c(SCC(=O)Nc2cccc(Cl)c2)nc2sc3c(c2c1=O)CCCC3	-	?	-	.	-	-

From PubChem
